Biological target: T1, Endothelin receptor type B (Homo sapiens, UniProt P24530)
T1 sequence (P24530 whole entry): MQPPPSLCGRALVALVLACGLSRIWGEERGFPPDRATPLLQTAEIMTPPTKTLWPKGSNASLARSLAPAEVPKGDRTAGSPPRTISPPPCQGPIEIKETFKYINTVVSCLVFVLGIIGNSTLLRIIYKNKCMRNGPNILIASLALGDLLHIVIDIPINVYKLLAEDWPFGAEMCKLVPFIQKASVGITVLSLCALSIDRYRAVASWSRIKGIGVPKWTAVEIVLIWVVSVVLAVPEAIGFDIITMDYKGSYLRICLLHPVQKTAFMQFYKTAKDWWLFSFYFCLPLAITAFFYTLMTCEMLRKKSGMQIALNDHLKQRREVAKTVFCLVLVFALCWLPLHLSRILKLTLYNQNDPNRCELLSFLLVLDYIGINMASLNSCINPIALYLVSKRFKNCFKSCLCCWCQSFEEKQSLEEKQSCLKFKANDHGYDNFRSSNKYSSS
Assay: Displacement of [125I]ET-1 from human ET-B receptor expressed in CHO cell membrane incubated for 2 hrs
Format: cell-based

IC50: 1.3 nM
SMILES: Cc1cc(C)cc(C(=O)N(C)[C@H](Cc2ccc(-c3ccccc3)cc2)C(=O)N[C@@H](Cc2c[nH]c3ccccc23)C(=O)O)c1
